Target: indoleamine 2, 3-dioxygenase (IDO1) (Homo sapiens, UniProt P14902)
Experiment: PBMC IDO1 assay (kynurenine via mass spectrometry)
Type: cell-based
Settings: human PBMC stimulated with IFN-γ and LPS, 2 days, kynurenine by mass spectrometry; recorded as pIC50
Description: Compounds of the present invention were tested via high-throughput cellular assays utilizing detection of kynurenine via mass spectrometry and cytotoxicity as end-points. For the mass spectrometry and cytotoxicity assays, human peripheral blood mononuclear cells (PBMC) (PB003F; AllCells®, Alameda, Calif.) were stimulated with human interferon-γ (IFN-γ) (Sigma-Aldrich Corporation, St. Louis, Mo.) and lipopolysaccharide from Salmonella minnesota (LPS) (Invivogen, San Diego, Calif.) to induce the expression of indoleamine 2, 3-dioxygenase (IDO1). Compounds with IDO1 inhibitory properties decreased the amount of kynurenine produced by the cells via the tryptophan catabolic pathway. Cellular toxicity due to the effect of compound treatment was measured using CellTiter-Glo® reagent (CTG) (Promega Corporation, Madison, Wis.), which is based on luminescent detection of ATP, an indicator of metabolically active cells.
In preparation for the assays, test compounds were serially diluted 3-fold in DMSO from a typical top concentration of 5 mM and plated at 0.5 μL in 384-well, polystyrene, clear bottom, tissue culture treated plates with lids (Greiner Bio-One, Kremsmünster, Austria) to generate 11-point dose response curves. Low control wells (0% kynurenine or 100% cytotoxicity) contained either 0.5 μL of DMSO in the presence of unstimulated (-IFN-γ/-LPS) PBMCs for the mass spectrometry assay or 0.5 μL of DMSO in the absence of cells for the cytotoxicity assay, and high control wells (100% kynurenine or 0% cytotoxicity) contained 0.5 μL of DMSO in the presence of stimulated (+IFN-γ/+LPS) PBMCs for both the mass spectrometry and cytotoxicity assays.
Frozen stocks of PBMCs were washed and recovered in RPMI 1640 medium (Thermo Fisher Scientific, Inc., Waltham, Mass.) supplemented with 10% v/v heat-inactivated fetal bovine serum (FBS) (Thermo Fisher Scientific, Inc., Waltham, Mass.), and 1× penicillin-streptomycin antibiotic solution (Thermo Fisher Scientific, Inc., Waltham, Mass.). The cells were diluted to 1,000,000 cells/mL in the supplemented RPMI 1640 medium. 50 μL of either the cell suspension, for the mass spectrometry assay, or medium alone, for the cytotoxicity assay, were added to the low control wells, on the previously prepared 384-well compound plates, resulting in 50,000 cells/well or 0 cells/well respectively. IFN-γ and LPS were added to the remaining cell suspension at final concentrations of 100 ng/ml and 50 ng/ml respectively, and 50 μL of the stimulated cells were added to all remaining wells on the 384-well compound plates. The plates, with lids, were then placed in a 37° C., 5% CO2 humidified incubator for 2 days.
Following incubation, the 384-well plates were removed from the incubator and allowed to equilibrate to room temperature for 30 minutes. For the cytotoxicity assay, CellTiter-Glo® was prepared according to the manufacturer's instructions, and 40 μL were added to each plate well. After a twenty minute incubation at room temperature, luminescence was read on an EnVision® Multilabel Reader (PerkinElmer Inc., Waltham, Mass.). For the mass spectrometry assay, 10 μL of supernatant from each well of the compound-treated plates were added to 40 μL of acetonitrile, containing 10 μM of an internal standard for normalization, in 384-well, polypropylene, V-bottom plates (Greiner Bio-One, Kremsmünster, Austria) to extract the organic analytes. Following centrifugation at 2000 rpm for 10 minutes, 10 μL from each well of the acetonitrile extraction plates were added to 90 μL of sterile, distilled H2O in 384-well, polypropylene, V-bottom plates for analysis of kynurenine and the internal standard on the RapidFire 300 (Agilent Technologies, Santa Clara, Calif.) and 4000 QTRAP MS (SCIEX, Framingham, Mass.). MS data were integrated using Agilent Technologies' RapidFire Integrator software, and data were normalized for analysis as a ratio of kynurenine to the internal standard. […]

Protein sequences, listed by entry. Tags and fused reporters are not part of them.
UniProt P14902, whole entry, looked up: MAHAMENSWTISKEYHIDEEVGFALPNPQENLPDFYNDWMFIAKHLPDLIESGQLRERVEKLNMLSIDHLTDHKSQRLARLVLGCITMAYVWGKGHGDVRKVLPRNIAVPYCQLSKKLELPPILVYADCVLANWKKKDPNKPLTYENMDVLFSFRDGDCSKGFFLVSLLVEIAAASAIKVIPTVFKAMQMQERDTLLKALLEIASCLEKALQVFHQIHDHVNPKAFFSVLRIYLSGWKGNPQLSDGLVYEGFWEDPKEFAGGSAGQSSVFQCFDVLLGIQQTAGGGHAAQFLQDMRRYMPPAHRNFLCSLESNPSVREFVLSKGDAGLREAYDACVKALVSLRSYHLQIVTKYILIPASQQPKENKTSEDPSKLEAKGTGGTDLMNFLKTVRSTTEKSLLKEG

Row | SMILES | PBMC PXC50_
1 | Cc1ncccc1OC(=O)N1CCC(C(CC(C)C)NC(=O)c2ccc(Cl)s2)CC1 (centres unmarked) | 8.9
2 | Cc1ccnc(C)c1OC(=O)N1CCC([C@H](NC(=O)c2ccc(Cl)s2)C2CC2)CC1 | 8.8
3 | CC(NC(=O)c1ccc(Br)cc1)C1CCN(C(=O)Oc2cccnc2F)CC1 (centres unmarked) | 6.9
4 | Cc1ccc(C(=O)NC(CC(C)C)C2CCN(C(=O)Oc3cccnc3C)CC2)s1 (centres unmarked) | 9
5 | Cc1ccc(C(=O)N[C@H](C2CC2)C2CCN(C(=O)Oc3cccnc3C)CC2)s1 | 8.4
6 | Cc1ncccc1OC(=O)N1CCC(C(C)NC(=O)c2ccc(Br)cc2)CC1 (centres unmarked) | 7.1
7 | O=C(NC(C1CC1)C1CCN(C(=O)Oc2cccnc2)CC1)c1ccc(F)cc1 (centres unmarked) | 6.2
8 | Cc1ncccc1OC(=O)N1CCC([C@H](NC(=O)c2ccc(Cl)s2)C2CC2)CC1 | 8.5

— US10927078B2, “Modulators of indoleamine 2,3-dioxygenase” (GLAXOSMITHKLINE INTELLECTUAL PROPERTY DEVELOPMENT LIMITED, priority 2017, dated 2021)
